Here are results for one substance from patent US8916540B2, “Antibiotic compositions and related screening methods” (Academia Sinica, priority 2008, dated 2014).

By UniProt entry, the sequences of proteins in these tests, tags left out. Where a name states a change or a piece, a line headed by the entry shows the natural chain unless it says otherwise.
UniProt P02919: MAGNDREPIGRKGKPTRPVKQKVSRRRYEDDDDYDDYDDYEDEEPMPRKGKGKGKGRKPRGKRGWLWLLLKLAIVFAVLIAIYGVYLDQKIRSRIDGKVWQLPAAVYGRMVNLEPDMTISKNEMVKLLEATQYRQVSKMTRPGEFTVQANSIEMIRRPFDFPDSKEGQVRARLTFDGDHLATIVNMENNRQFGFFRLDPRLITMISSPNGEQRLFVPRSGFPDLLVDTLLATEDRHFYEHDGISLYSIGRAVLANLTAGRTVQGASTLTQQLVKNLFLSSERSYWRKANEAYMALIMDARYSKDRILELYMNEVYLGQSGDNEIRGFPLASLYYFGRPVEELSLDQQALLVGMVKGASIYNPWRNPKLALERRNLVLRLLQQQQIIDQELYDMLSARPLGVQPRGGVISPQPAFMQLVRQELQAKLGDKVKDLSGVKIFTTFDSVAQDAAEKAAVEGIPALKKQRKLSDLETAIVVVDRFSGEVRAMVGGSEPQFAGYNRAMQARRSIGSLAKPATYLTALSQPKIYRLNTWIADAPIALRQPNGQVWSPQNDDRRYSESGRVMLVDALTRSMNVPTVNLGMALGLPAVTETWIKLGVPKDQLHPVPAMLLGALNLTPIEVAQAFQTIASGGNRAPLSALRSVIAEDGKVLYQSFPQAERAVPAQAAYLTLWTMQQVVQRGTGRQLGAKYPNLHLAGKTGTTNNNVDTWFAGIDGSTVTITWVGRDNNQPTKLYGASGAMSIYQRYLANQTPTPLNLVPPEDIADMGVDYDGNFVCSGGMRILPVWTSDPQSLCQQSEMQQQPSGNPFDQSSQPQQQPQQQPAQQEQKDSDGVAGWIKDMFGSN

The target of assay [1] is PBP1b from Escherichia coli (Escherichia coli, UniProt P02919). The format is binding. The note with it: read-out: steady-state affinity (KD) by SPR; full-length E. coli PBP1b immobilized, 1:1 interaction model.
Assay [2] concerns the target T1, PBP from Clostridium difficile (Clostridioides difficile, UniProt Q189X7).
T1 sequence (Q189X7 1-897): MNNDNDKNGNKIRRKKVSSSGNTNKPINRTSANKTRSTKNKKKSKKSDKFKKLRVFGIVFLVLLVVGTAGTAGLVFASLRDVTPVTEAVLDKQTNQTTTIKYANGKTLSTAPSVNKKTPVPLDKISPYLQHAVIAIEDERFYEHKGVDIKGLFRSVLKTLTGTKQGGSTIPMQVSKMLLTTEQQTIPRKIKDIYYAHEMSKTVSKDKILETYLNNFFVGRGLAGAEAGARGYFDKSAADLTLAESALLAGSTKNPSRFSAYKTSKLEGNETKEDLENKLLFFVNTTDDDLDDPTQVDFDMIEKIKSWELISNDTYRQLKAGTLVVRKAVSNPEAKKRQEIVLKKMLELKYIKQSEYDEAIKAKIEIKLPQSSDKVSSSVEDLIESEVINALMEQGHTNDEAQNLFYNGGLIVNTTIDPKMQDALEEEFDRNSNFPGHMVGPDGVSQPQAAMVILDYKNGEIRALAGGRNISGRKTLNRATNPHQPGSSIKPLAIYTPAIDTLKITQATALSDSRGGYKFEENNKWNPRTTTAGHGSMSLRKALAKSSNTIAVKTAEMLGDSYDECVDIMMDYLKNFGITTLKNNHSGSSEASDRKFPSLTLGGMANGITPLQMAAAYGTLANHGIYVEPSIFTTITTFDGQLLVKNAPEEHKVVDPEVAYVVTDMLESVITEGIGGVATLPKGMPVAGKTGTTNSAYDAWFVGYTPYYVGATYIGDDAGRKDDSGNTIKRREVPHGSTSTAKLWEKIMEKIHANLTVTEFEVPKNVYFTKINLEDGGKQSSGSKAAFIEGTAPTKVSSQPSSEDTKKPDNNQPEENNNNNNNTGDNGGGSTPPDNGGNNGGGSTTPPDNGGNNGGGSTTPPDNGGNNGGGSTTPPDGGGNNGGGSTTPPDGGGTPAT
Kind of assay: SPR moenomycin binding to immobilized full-length PBP. Particulars: read-out: SPR_KD, steady-state affinity, average values.

Regarding Moenomycin A [Compound 1], the Kd in assay [1] is 440 nM; in assay [2], 582 nM.
